Measurements from ChEMBL document CHEMBL3259632, “Discovery of dual orexin receptor antagonists with rat sleep efficacy enabled by expansion of the acetonitrile-assisted/diphosgene-mediated 2,4-dichloropyrimidine synthesis” (2014).

Protein sequences, listed by entry. Tags and fused reporters are not part of them.
UniProt O43613, whole entry, looked up: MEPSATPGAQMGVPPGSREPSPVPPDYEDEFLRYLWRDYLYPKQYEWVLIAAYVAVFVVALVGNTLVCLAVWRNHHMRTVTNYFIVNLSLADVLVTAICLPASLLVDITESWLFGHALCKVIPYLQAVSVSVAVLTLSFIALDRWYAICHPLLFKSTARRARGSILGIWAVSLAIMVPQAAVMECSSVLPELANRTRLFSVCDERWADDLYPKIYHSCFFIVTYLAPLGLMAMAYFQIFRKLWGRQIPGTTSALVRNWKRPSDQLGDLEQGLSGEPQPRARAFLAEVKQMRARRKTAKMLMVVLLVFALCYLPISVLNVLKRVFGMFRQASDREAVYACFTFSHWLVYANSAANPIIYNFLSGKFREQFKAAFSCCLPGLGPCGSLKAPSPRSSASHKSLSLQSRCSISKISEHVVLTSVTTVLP
UniProt O43614, whole entry, looked up: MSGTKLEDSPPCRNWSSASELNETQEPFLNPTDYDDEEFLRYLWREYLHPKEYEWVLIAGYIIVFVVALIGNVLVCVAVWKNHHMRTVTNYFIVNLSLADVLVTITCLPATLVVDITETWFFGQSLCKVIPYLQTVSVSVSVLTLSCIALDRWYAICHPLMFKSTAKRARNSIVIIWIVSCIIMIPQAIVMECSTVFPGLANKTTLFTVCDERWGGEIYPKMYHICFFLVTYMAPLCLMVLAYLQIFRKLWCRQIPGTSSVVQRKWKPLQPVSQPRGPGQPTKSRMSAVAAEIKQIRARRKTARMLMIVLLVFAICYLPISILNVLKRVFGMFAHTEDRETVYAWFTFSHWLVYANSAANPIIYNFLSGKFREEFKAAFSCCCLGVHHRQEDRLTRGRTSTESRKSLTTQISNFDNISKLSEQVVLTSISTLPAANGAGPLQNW

How the values were obtained:
[1] = molecular target: T1, Orexin/Hypocretin receptor type 1 (Homo sapiens, UniProt O43613); test: Displacement of [3H]radioligand from human orexin-1 receptor expressed in CHO cells after 3 hrs by scintillation counting analysis
Orexin receptor type 2 [2] = molecular target: T2, Orexin receptor type 2 (Homo sapiens, UniProt O43614); test: Displacement of [3H]radioligand from human orexin-2 receptor expressed in CHO cells after 3 hrs by scintillation counting analysis
[3] = molecular target: T1, Orexin/Hypocretin receptor type 1; test: Antagonist activity at human orexin-1 receptor expressed in CHO cells assessed as inhibition of Ala-6, 12-induced responses by FLIPR assay
Orexin receptor type 2 [4] = molecular target: T2, Orexin receptor type 2; test: Antagonist activity at human orexin-2 receptor expressed in CHO cells assessed as inhibition of Ala-6, 12-induced responses by FLIPR assay
Rattus norvegicus [5] = test: In vivo sleep efficacy in Sprague-Dawley rat assessed as active wake sleep at 30 mg/kg, po monitored for 2 hrs
Rattus norvegicus [6] = test: In vivo sleep efficacy in Sprague-Dawley rat assessed as light sleep at 30 mg/kg, po monitored for 2 hrs
Rattus norvegicus [7] = test: In vivo sleep efficacy in Sprague-Dawley rat assessed as slow wave sleep at 30 mg/kg, po monitored for 2 hrs
Rattus norvegicus [8] = test: In vivo sleep efficacy in Sprague-Dawley rat assessed as REM sleep at 30 mg/kg, po monitored for 2 hrs
Liver microsome [9] = test: Bioactivation in rat liver microsomes assessed as GSH adducts formation relative to standard
Liver microsome [10] = test: Bioactivation in human liver microsomes assessed as GSH adducts formation relative to standard
[11] = Plasma protein binding in human
[12] = Plasma protein binding in dog
[13] = Lipophilicity, log D of the compound by HPLC method
[14] = Plasma protein binding in rat
Rattus norvegicus [15] = test: Volume of distribution at steady state in rat at 2 mg/kg, iv; details: in vivo
Rattus norvegicus [16] = test: Half life in rat at 2 mg/kg, iv; details: in vivo
Rattus norvegicus [17] = test: Cmax in rat at 10 mg/kg, po administered in dosed as the hydrochloride salt in 100% PEG200; details: in vivo
Canis familiaris [18] = test: Volume of distribution at steady state in dog at 0.5 mg/kg, iv; details: in vivo
Canis familiaris [19] = test: Half life in dog at 0.5 mg/kg, iv; details: in vivo
Rattus norvegicus [20] = test: AUC in rat at 10 mg/kg, po administered in dosed as the hydrochloride salt in 100% PEG200; details: in vivo, Plasma
Rattus norvegicus [21] = test: Tmax in rat at 10 mg/kg, po administered in dosed as the hydrochloride salt in 100% PEG200; details: in vivo
Rattus norvegicus [22] = test: Oral bioavailability in rat at 10 mg/kg administered in dosed as the hydrochloride salt in 100% PEG200; details: in vivo
Rattus norvegicus [23] = test: In vivo sleep efficacy in Sprague-Dawley rat assessed as active wake sleep at 25 mg/kg, po monitored for 2 hrs
Rattus norvegicus [24] = test: In vivo sleep efficacy in Sprague-Dawley rat assessed as light sleep at 25 mg/kg, po monitored for 2 hrs
Rattus norvegicus [25] = test: In vivo sleep efficacy in Sprague-Dawley rat assessed as slow wave sleep at 25 mg/kg, po monitored for 2 hrs
Rattus norvegicus [26] = test: In vivo sleep efficacy in Sprague-Dawley rat assessed as REM sleep at 25 mg/kg, po monitored for 2 hrs
Rattus norvegicus [27] = test: In vivo occupancy of orexin-2 receptor in transgenic rat at 2 uM plasma concentration

Structure (SMILES) | Ki [1] | Ki (Orexin receptor type 2 [2]) | IC50 [3] | IC50 (Orexin receptor type 2 [4]) | other results
C[C@@H]1CCN(c2nc(N)c3ccsc3n2)CCN1C(=O)c1ccccc1-n1nccn1 | 0.9 nM | 9.2 nM | 15 nM | 35 nM | 
Cc1coc2nc(N3CC[C@@H](C)N(C(=O)c4ccccc4-n4nccn4)CC3)nc(N)c12 | 1.8 nM | 25 nM | 195 nM | 210 nM | 
Cc1ccc(-n2nccn2)c(C(=O)N2CCN(c3ncc4c(C)c(C)oc4n3)CC[C@H]2C)c1 | 0.5 nM | 0.5 nM | 67 nM | 42 nM | 
C[C@@H]1CCN(c2ncc3cc(F)ccc3n2)CCN1C(=O)c1ccccc1-n1nccn1 |  |  |  |  | Time (Rattus norvegicus [5]): 58 min; Time (Rattus norvegicus [6]): 14 min; Time (Rattus norvegicus [7]): 41 min; Time (Rattus norvegicus [8]): 7 min; Drug metabolism (Liver microsome [9]): metabolite_detected; Drug metabolism (Liver microsome [10]): metabolite_detected
Cc1csc2nc(N3CC[C@@H](C)N(C(=O)c4ccccc4-n4nccn4)CC3)nc(N)c12 | 0.3 nM | 1.2 nM | 28 nM | 29 nM | PPB [11]: 98.5%; PPB [12]: 97.8%; logD [13]: 2; PPB [14]: 98.9%; Vdss (Rattus norvegicus [15]): 0.3 L/kg; t1/2 (Rattus norvegicus [16]): 12 min; Cmax (Rattus norvegicus [17]): 3.8 µM; Vdss (Canis familiaris [18]): 0.7 L/kg; t1/2 (Canis familiaris [19]): 48 min; Drug metabolism (Liver microsome [9]): metabolite_detected; Drug metabolism (Liver microsome [10]): metabolite_detected
Cc1ccc(-n2nccn2)c(C(=O)N2CCN(c3ncc4cnn(C)c4n3)CC[C@H]2C)c1 | 2 nM | 49 nM | 92 nM | 70 nM | 
Cc1cc2c(N)nc(N3CC[C@@H](C)N(C(=O)c4ccccc4-n4nccn4)CC3)nc2s1 | 0.7 nM | 1.5 nM | 31 nM | 34 nM | 
Cc1ccc(-n2nccn2)c(C(=O)N2CCN(c3ncc4c(C)nn(C)c4n3)CC[C@H]2C)c1 | 0.8 nM | 3.7 nM | 119 nM | 85 nM | 
Cc1ccc(-n2nccn2)c(C(=O)N2CCN(c3nc(N)c4ccsc4n3)CC[C@H]2C)c1 | 0.5 nM | 0.7 nM | 26 nM | 34 nM | 
Cc1ccc(-n2nccn2)c(C(=O)N2CCN(c3nc(N)c4c(C)coc4n3)CC[C@H]2C)c1 | 1.8 nM | 5 nM | 195 nM | 160 nM | 
Cc1csc2nc(N3CC[C@@H](C)N(C(=O)c4ccccc4-n4nccn4)CC3)nc(N)c12.Cl |  |  |  |  | AUC (Rattus norvegicus [20]): 2.8 µM·h; Tmax (Rattus norvegicus [21]): 18 min; bioavailability (Rattus norvegicus [22]): 17%; Time (Rattus norvegicus [23]): 53 min; Time (Rattus norvegicus [24]): 12 min; Time (Rattus norvegicus [25]): 46 min; Time (Rattus norvegicus [26]): 9 min; Activity (Rattus norvegicus [27]): 88%
Cc1ccc(-n2nccn2)c(C(=O)N2CCN(c3nc(N)c4cc(C)sc4n3)CC[C@H]2C)c1 | 0.4 nM | 0.4 nM | 47 nM | 35 nM | 
Cc1nn(C)c2nc(N3CC[C@@H](C)N(C(=O)c4ccccc4-n4nccn4)CC3)ncc12 | 4.5 nM | 92 nM | 200 nM | 280 nM | 
Cc1ccc(-n2nccn2)c(C(=O)N2CCN(c3nc(N)c4c(C)csc4n3)CC[C@H]2C)c1 | 0.3 nM | 0.3 nM | 53 nM | 43 nM | 
Cc1ccc(-n2nccn2)c(C(=O)N2CCN(c3ncc4c(C)csc4n3)CC[C@H]2C)c1 | 0.3 nM | 0.2 nM | 37 nM | 35 nM | PPB [11]: 99.4%; logD [13]: 3.8; PPB [14]: 99.3%
Cc1ccc(-n2nccn2)c(C(=O)N2CCN(c3ncc4c(C)coc4n3)CC[C@H]2C)c1 | 0.2 nM | 0.6 nM | 45 nM | 34 nM | 
